## Ab-14 heavy chain CDR variants: yeast mating affinities

Target peptide (SARS-CoV-2 spike, HR2 region): PDVDLGDISGINAS

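The parent was found by panning a naive human phage display library on the peptide. Designed CDR sequences, proposed from the first random library and measured here. Their group label is 14H_En_Gen (En: ensemble of fine-tuned language models; Gen: genetic algorithm). Affinity was read by AlphaSeq, a pooled yeast mating assay with surface-displayed partners. The frequency of each diploid, read from paired DNA barcodes, reflects how well the two displayed proteins bind. Each replicate has its own calibration line, from reference interactions of the BCL2 family. There are six technical replicates.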

Each scFv is VH, the linker GGGGSGGGGSGGGGS, VL, as in the parent Ab-14, and differs from it in the CDRs of the heavy chain only.
VH: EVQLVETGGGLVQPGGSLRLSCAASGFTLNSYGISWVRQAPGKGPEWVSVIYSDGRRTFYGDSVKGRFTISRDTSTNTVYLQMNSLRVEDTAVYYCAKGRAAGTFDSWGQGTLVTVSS
VL: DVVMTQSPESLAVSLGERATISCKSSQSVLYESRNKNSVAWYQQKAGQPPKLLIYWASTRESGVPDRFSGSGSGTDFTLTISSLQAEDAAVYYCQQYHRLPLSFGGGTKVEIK

Each variant is given by its three heavy chain CDRs, as the data file delimits them; those of the parent are GFTLNSYGIS, VIYSDGRRTFYGDSVK, GRAAGTFDS.
The read-out is the apparent dissociation constant on a log10 scale (nM): the lower, the stronger.
A pair that was not seen in that replicate is written "ND"; this usually means weak binding, but a binder can also be missed.
A sequence measured in both rounds can read differently, since the two assays cover different ranges.
Three control strains display no target. For all heavy chain designs, 1% of the pairings with them gave a signal, with a median of 2.08 and one signal in twenty below 0.84, so weak values seen in few replicates may be background. The control count says in how many pairings with the empty strains this scFv gave a signal, with their mean in brackets.
The authors averaged sequences with at least three values out of six and counted those with two or fewer as poor binders.
Of ten entries with the parent sequence, four were seen in most replicates (averages 0.34 to 2.37), three in one and three in none, so single entries are noisy.

| # | CDR-H1 | CDR-H2 | CDR-H3 | replicates, log10 nM | empty controls |
|---|---|---|---|---|---|
| 1 | GFDLDEYGIS | VIYADGVRTFYADSVK | GENAGTFDI | 0.11 / -0.31 / -0.07 / -0.47 / -0.49 / -0.29 | 0 of 18 |
| 2 | GFDLNEYGIS | VIYADGMRTAYADSVK | GTNAGTFDV | -0.54 / -0.42 / -0.29 / -0.42 / -0.12 / -0.28 | 0 of 18 |
| 3 | GFDLNEYGIS | VIYADGQRTFYSDSVK | GNVAGTFDV | -0.85 / -0.72 / -0.93 / -0.92 / -0.96 / -0.91 | 0 of 18 |
| 4 | GFDLNEYGIS | VIYADGMRTAYADSVK | GNMAGTFDV | -0.14 / 0.77 / 0.13 / -0.92 / -0.85 / -0.18 | 0 of 18 |
| 5 | GFDLNEYGIS | VIYADGMRKAYADDVK | GSNAGTFDV | -0.70 / -0.40 / -1.10 / -0.87 / -0.59 / -0.58 | 0 of 18 |
| 6 | GFDLNEYGIS | VIYADGRRTAYVDSVK | GEVAGTFDV | 0.46 / ND / -0.67 / -0.51 / -0.10 / ND | 0 of 18 |
| 7 | GFDLNEYGIS | VIYADGVRTAYSDDVK | GENAGTFDV | 0.55 / 0.03 / 0.10 / 0.63 / 0.16 / 0.59 | 2 of 18 (2.07) |
| 8 | GFDLNEYGIS | VIYADGVRTMYADSVK | GENAGTFDV | 0.50 / 0.61 / -0.19 / 0.39 / 0.54 / 0.36 | 1 of 18 (3.21) |
| 9 | GFDINEYGIS | VIYADGRRTAYADSVK | GNVAGTFDV | -0.01 / -0.93 / 0.22 / -0.63 / -1.06 / -0.81 | 0 of 18 |
| 10 | GFDLDEYGIS | VIYADGKRTAYADSVK | GGNAGTFDV | -0.62 / -0.96 / -0.95 / -1.20 / -1.03 / -0.72 | 0 of 18 |
| 11 | GFDLDEYGIS | VIYADGQRTAYTDSVK | GNVAGTFDI | -0.59 / -0.31 / -0.41 / -0.93 / -0.36 / -0.31 | 0 of 18 |
| 12 | GFDLDEYGIS | VIYADGKRTAYADSVK | GTVAGTFDV | 0.32 / -0.17 / -0.60 / -0.57 / -0.47 / -0.31 | 0 of 18 |
| 13 | GFDLNEYGIS | VIYADGMRTSYVDSVK | GENAGTFDV | 0.22 / 0.00 / -0.06 / -0.42 / -0.28 / -0.20 | 0 of 18 |
| 14 | GFDLEDYGIS | VIYADGMRTAYSDSVK | GQNAGTFDV | -0.26 / 0.09 / ND / -0.37 / -0.43 / ND | 0 of 18 |
| 15 | GFDLNEYGIS | VIYADGVRTAYIDSVK | GNVAGTFDM | -0.41 / -0.44 / -0.63 / -0.68 / -0.48 / -0.59 | 0 of 18 |
| 16 | GFDLDEYGIS | VIYADGRRTAYADSVK | GNTAGTFDM | -0.61 / -0.69 / -1.00 / -0.82 / -0.51 / -0.60 | 0 of 18 |
| 17 | GFDLNEYGIS | VIYADGRRTAYADSVK | GEVAGTFDL | -0.15 / 0.03 / -0.29 / -0.26 / -0.27 / -0.19 | 0 of 18 |
| 18 | GFDLDEYGIS | VIYADGKRTAYADSVK | GQNAGTFDV | 0.04 / 0.47 / 0.89 / -0.33 / -0.40 / 0.73 | 1 of 18 (2.01) |
| 19 | GFDLDEYGIS | VIYADGQRTAYTDSVK | GGNAGTFDV | -0.69 / ND / -0.58 / 0.25 / -0.13 / -0.86 | 0 of 18 |
| 20 | GFDLNEYGIS | VIYADGRRTAYADSVK | GQNAGTFDI | -0.39 / -0.55 / -0.32 / -0.62 / -0.63 / -0.26 | 0 of 18 |
| 21 | GFDLNEYGIS | VIYADGMRTAYSDSVK | GNVAGTFDQ | -0.30 / -0.50 / -0.36 / -0.47 / -0.27 / -0.15 | 1 of 18 (1.76) |
| 22 | GFDLDEYGIS | VIYADGVRTSYADSVK | GENAGTFDV | 1.09 / 1.33 / 0.88 / 0.80 / 0.82 / 0.65 | 2 of 18 (2.28) |
| 23 | GFDLNEYGIS | VIYADGQRTAYSDSVK | GNVAGTFDL | 0.35 / 0.72 / -0.50 / -0.73 / -0.10 / -0.55 | 0 of 18 |
| 24 | GFDLEDYGIS | VIYADGKRTAYSDSVK | GEVAGTFDV | -0.24 / -0.50 / 0.55 / -0.46 / -0.78 / -0.75 | 0 of 18 |
| 25 | GFDLDEYGIS | VIYADGSRTAYTDSVK | GEVAGTFDV | 0.14 / -0.02 / -0.39 / 0.55 / 0.29 / 0.12 | 0 of 18 |
| 26 | GFDLNEYGIS | VIYADGMRKYYADSVK | GENAGTFDI | 0.59 / -0.18 / 0.12 / 0.20 / -0.38 / -0.05 | 0 of 18 |
| 27 | GFDLNEYGIS | VIYADGMRTAYSDDVK | GNVAGTFDM | -0.60 / -0.57 / -0.82 / -0.84 / -0.74 / -0.51 | 0 of 18 |
| 28 | GFDLEDYGIS | VIYADGKRTAYSDSVK | GENAGTFDV | 0.15 / 0.69 / 0.62 / 0.24 / 0.52 / 0.66 | 1 of 18 (1.82) |
| 29 | GFDLNEYGIS | VIYADGMRSYYADSVK | GNVAGTFDM | ND / ND / ND / ND / ND / ND | 0 of 18 |
| 30 | GFDLNEYGIS | VIYADGMRTAYADSVK | GQVAGTFDQ | -0.38 / -0.23 / -0.45 / -0.38 / -0.96 / 0.04 | 0 of 18 |
| 31 | GFDLNEYGIS | VIYADGQRTAYVDSVK | GNVAGTFDL | -0.25 / -0.53 / -0.76 / -0.63 / -0.50 / -0.28 | 0 of 18 |
| 32 | GFDLDEYGIS | VIYADGKRTAYSDSVK | GNNAGTFDQ | -1.23 / -0.71 / -0.99 / -0.80 / -0.24 / -0.49 | 0 of 18 |
| 33 | GFDLDEYGIS | VIYADGMRTSYADSVK | GNVAGTFDI | -0.15 / -0.32 / -0.43 / -0.49 / -0.13 / -0.39 | 0 of 18 |
| 34 | GFDLNEYGIS | VIYADGRRKAYADSVK | GNVAGTFDV | -0.66 / -0.65 / -0.49 / -1.00 / -0.70 / -0.48 | 0 of 18 |
| 35 | GFDLDEYGIS | VIYADGSRTAYSDSVK | GNVAGTFDL | -0.61 / -0.39 / -0.49 / -0.39 / -0.76 / -0.10 | 1 of 18 (0.66) |
| 36 | GFDLNEYGIS | VIYADGLRTAYADDVK | GNQAGTFDV | -0.24 / -0.61 / -0.48 / -0.74 / -0.27 / -0.15 | 1 of 18 (1.52) |
| 37 | GFDLNEYGIS | VIYADGQRTAYADDVK | GNNAGTFDM | -0.04 / -0.12 / -0.13 / -0.16 / -0.16 / -0.15 | 0 of 18 |
| 38 | GFDLDEYGIS | VIYADGSRTAYADSVK | GEVAGTFDT | 0.63 / -0.85 / -0.73 / -0.29 / -0.15 / -0.18 | 0 of 18 |
| 39 | GFDLNEYGIS | VIYADGKRKAYADSVK | GNQAGTFDV | -0.08 / -0.09 / -0.37 / -0.16 / -0.51 / -0.30 | 0 of 18 |
| 40 | GFDLNEYGIS | VIYADGMRTAYVDSVK | GGNAGTFDI | 0.01 / -0.87 / -0.72 / -0.54 / -0.42 / -0.52 | 0 of 18 |

4 of these entries, quoted again:

{"CDR-H1": "GFDLDEYGIS", "CDR-H2": "VIYADGKRTAYADSVK", "CDR-H3": "GTVAGTFDV", "replicates, log10 nM": "0.32 / -0.17 / -0.60 / -0.57 / -0.47 / -0.31", "empty controls": "0 of 18"}
{"CDR-H1": "GFDLNEYGIS", "CDR-H2": "VIYADGMRTAYSDDVK", "CDR-H3": "GNVAGTFDM", "replicates, log10 nM": "-0.60 / -0.57 / -0.82 / -0.84 / -0.74 / -0.51", "empty controls": "0 of 18"}
{"CDR-H1": "GFDLNEYGIS", "CDR-H2": "VIYADGMRTAYADSVK", "CDR-H3": "GTNAGTFDV", "replicates, log10 nM": "-0.54 / -0.42 / -0.29 / -0.42 / -0.12 / -0.28", "empty controls": "0 of 18"}
{"CDR-H1": "GFDLNEYGIS", "CDR-H2": "VIYADGRRTAYVDSVK", "CDR-H3": "GEVAGTFDV", "replicates, log10 nM": "0.46 / ND / -0.67 / -0.51 / -0.10 / ND", "empty controls": "0 of 18"}

Reference: Li et al. 2023, doi:10.1038/s41467-023-39022-2. File: FLAb, binding data.